Source: PubChem (National Center for Advancing Translational Sciences (NCATS))
TDP1 inh = inhibitors of human tyrosyl-DNA phosphodiesterase TDP1; Q9NUW8; recombinant TDP1, AlphaScreen DNA substrate cleavage; Potency, µM (highest dose often 130 µM), without a hit: top-dose activity change, negative = inhibition, hits mostly inhibitors; 350,000 compounds, 0.28% hits; AID 485290; also: potency is read from the fitted curve at half-maximal effect; % is scaled to controls: 0 for no effect and ±100 for the full control effect; nearly all actives have a fitted effect of over 40% in size
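Enzyme-compound mixtures sat 15 min at room temperature, followed by a 5 min reaction with 15 nM final substrate and 10 min with AlphaScreen beads. Recombinant human Tdp1 was used at 1 nM final.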
DT40 TDP1 no CPT = qHTS for Inhibitors of human tyrosyl-DNA phosphodiesterase 1 (TDP1): qHTS in cells in absence of CPT; DT40 Tdp1-/- hTDP1 cells, no CPT, ATP luminescence, 48 h; Potency, µM (highest dose often 46.2 µM), without a hit: at the highest dose activity change, negative = growth inhibition, hits mostly inhibitors; AID 686978, 2013; 420,000 compounds, 15% hits; also: potency is read from the fitted curve at half-maximal effect; % is scaled to controls: 0 for no effect and ±100 for the full control effect; nearly all actives have a fitted effect of over 55% in size
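Luminescent ATP content (CellTiter-Glo) served as the growth readout. Knockout chicken DT40 cells expressing human TDP1 were exposed to compounds without camptothecin for a minimum 48 hr at 37 °C.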
miR-21 reporter = miR-21 reporter, rising signal; HeLa miR-21 FLuc reporter, luciferase, 48 h; Potency, µM (doses to about 38.3 µM), for inactives: at the highest dose reporter change, positive = more light; 340,000 tested, under 10 active; AID 2288; active = well fitted rising curve with a large enough effect; inconclusive = small, poorly fitted or top-dose-only effect; inactive = no such curve, though single readings can be large or run the other way;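 further: % of control where 0% means no effect; miR-21 action dims this reporter so a rising signal means less miR-21 action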
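Using DMEM plus 10% FBS, HeLa miR-21-FLuc cells are incubated with test compounds (final up to about 40uM) for 48 hours; firefly luciferase signal is then imaged following reagent-mediated lysis.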
DT40 TDP1 CPT = growth inhibition of DT40 Tdp1-/-;hTDP1 cells with camptothecin (screen for TDP1 inhibitors); chicken DT40 Tdp1-/-;hTDP1 cells + 20 nM CPT, ATP luminescence, 48 h; Potency, µM (top dose mostly 46.2 µM), for the others: top-dose activity change, negative = growth inhibition, hits mostly inhibitors; 420,000 compounds, 12% hits; AID 686979; also: potency is read from the fitted curve at half-maximal effect; % is scaled to controls: 0 for no effect and ±100 for the full control effect; nearly all actives have a fitted effect of over 55% in size
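Chicken DT40 Tdp1-/- cells complemented with human TDP1, 400 cells/well, exposed to compounds plus 20 nM camptothecin for at least 48 h at 37 C; viability read as ATP content by CellTiter-Glo luminescence.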
uPA generation = blocks generation of uPA at the cell surface | cell surface uPA generation assay, qHTS | 330,000 compounds, 0.31% hits | Potency, µM (top dose mostly 38.3 µM), without a hit: at the top dose activity change, negative = inhibition, hits mostly inhibitors; active = well fitted inhibition curve with a large enough effect; inconclusive = small, poorly fitted or top-dose-only effect; inactive = no such curve, though single readings can be large or run the other way; tested in mouse RAW 264.7 cells; also: potency is read from the fitted curve at half-maximal effect; % is scaled to controls: 0 for no effect and ±100 for the full control effect; nearly all actives have a fitted effect of over 55% in size
An asterisk follows results filed as active; [ ] = another dose, or the depositor's remark. This is a sample that favours compounds with a hit; in the whole collection about 16% have one here. Unless noted, calls follow the shape of the dose curve; as a rule, active = well fitted curve in the direction sought with a large enough effect; inconclusive = small, poorly fitted or top-dose-only effect, or another doubt; inactive = no such curve, though single readings can be large; an effect the other way counts as inactive or inconclusive.

Screening COc1ccc(OC)c(C(=O)c2c(C)oc3cc([N+](=O)[O-])c(O)c([N+](=O)[O-])c23)c1 returned TDP1 inh 5%, DT40 TDP1 no CPT inconclusive, miR-21 reporter -23%, DT40 TDP1 CPT inconclusive and uPA generation 3%.
For Cc1oc2cc([N+](=O)[O-])c(O)c([N+](=O)[O-])c2c1C(=O)c1ccc(Cl)cc1 the results were TDP1 inh 0%, DT40 TDP1 no CPT inconclusive, miR-21 reporter 15%, DT40 TDP1 CPT 23µM* and uPA generation inconclusive.
`CN(C)c1ccc(NC(=O)CSc2nc(N)c(C(=O)Nc3ccc(N(C)C)cc3)s2)cc1` gave TDP1 inh 10%, DT40 TDP1 no CPT 13µM*, miR-21 reporter 16%, DT40 TDP1 CPT 10µM* and uPA generation -6%.
`CCc1nc(SCC(=O)Nc2ccc(N(CC)CC)cc2)n[nH]1` gave DT40 TDP1 no CPT -10%, DT40 TDP1 CPT -7% and uPA generation 3%.
`CCc1nc(SCC(=O)Nc2ccc(N(C)C)cc2)n[nH]1` gave TDP1 inh 8%, DT40 TDP1 no CPT 4.6µM*, DT40 TDP1 CPT 4.6µM* and uPA generation -9%.
`Cc1nc2sc3c(c2c2nc(-c4ccco4)nn12)CCCC3` gave TDP1 inh 0% and miR-21 reporter -1%.
O=Cc1ccc(OCC(=O)Nc2ccccc2C(F)(F)F)cc1 was read as TDP1 inh 0%, DT40 TDP1 no CPT -24%, miR-21 reporter -23%, DT40 TDP1 CPT 8% and uPA generation 0%.
For COc1ccc(OCc2nnc(SCC(=O)Nc3oc(C)c4c(C)n[nH]c(=O)c34)n2C)cc1 the results were DT40 TDP1 no CPT -2% and DT40 TDP1 CPT -13%.
`COc1ccc(CCNC(=O)c2c(O)c3ccccc3n(C)c2=O)cc1` gave TDP1 inh -4%, DT40 TDP1 no CPT -18%, miR-21 reporter -5%, DT40 TDP1 CPT 15% and uPA generation 0%.
Screening C=CCC1(CC=C)CCCN1C(=O)c1cc(COc2cccc(C(F)(F)F)c2)on1 returned TDP1 inh -1%, DT40 TDP1 no CPT 15µM*, miR-21 reporter 11%, DT40 TDP1 CPT 15µM* and uPA generation inconclusive.

Random excerpt: 2 compounds from above.
`CCc1nc(SCC(=O)Nc2ccc(N(CC)CC)cc2)n[nH]1` gave DT40 TDP1 no CPT -10%, DT40 TDP1 CPT -7% and uPA generation 3%.
For COc1ccc(OCc2nnc(SCC(=O)Nc3oc(C)c4c(C)n[nH]c(=O)c34)n2C)cc1 the results were DT40 TDP1 no CPT -2% and DT40 TDP1 CPT -13%.

(list continues)
Screening CCOC(=O)N1CCN(C(=O)c2cc(COc3cccc(C(F)(F)F)c3)on2)CC1 returned TDP1 inh -4%, DT40 TDP1 no CPT 16µM*, miR-21 reporter -54%, DT40 TDP1 CPT inconclusive and uPA generation 9%.
O=C(c1cc(COc2cccc(C(F)(F)F)c2)on1)N1CCC(Oc2cccnc2)CC1 was read as TDP1 inh 0%, DT40 TDP1 no CPT 12µM*, miR-21 reporter 20%, DT40 TDP1 CPT 15µM* and uPA generation -28%.
Screening CCOC(=O)N1CCN(C(=O)c2cc(COc3cccc(C(C)=O)c3)on2)CC1 returned TDP1 inh 4%, DT40 TDP1 no CPT inconclusive, miR-21 reporter -17%, DT40 TDP1 CPT inconclusive and uPA generation -3%.
O=c1c2ccccc2cnn1Cc1n[nH]c(=S)n1-c1ccc(F)cc1 was read as TDP1 inh -4%, DT40 TDP1 no CPT 12%, miR-21 reporter 0%, DT40 TDP1 CPT -3% and uPA generation 3%.
COC(=O)C1=C(C(=O)OC)SC2(S1)C(C(=O)OC)=C(C(=O)OC)SC1=C2c2cc(C)cc(C)c2NC1(C)C was read as TDP1 inh 6%, DT40 TDP1 no CPT inconclusive, miR-21 reporter -4%, DT40 TDP1 CPT inconclusive and uPA generation -6%.
Cc1cc(OCCCCOc2ccc(S(N)(=O)=O)c(C)c2)ccc1S(N)(=O)=O was read as DT40 TDP1 no CPT inconclusive, miR-21 reporter 21%, DT40 TDP1 CPT 18µM* and uPA generation 2%.
For Cc1ccc(OCCCSc2ncccn2)cc1C the results were TDP1 inh -4%[56.1 µM], DT40 TDP1 no CPT -21%, miR-21 reporter -74%, DT40 TDP1 CPT 2% and uPA generation -2%.
COc1ccc(Cl)cc1CC1(C)C(=O)Nc2c(Cl)cccc21 (stereo not drawn) was read as DT40 TDP1 no CPT 23µM* and DT40 TDP1 CPT inconclusive.
